Laboratory results reported in patent publication US20110151484A1, “hERG MUTANTS AND USES THEREOF” (priority 2008, published 2011).

Sequences of proteins named here, by UniProt entry; tags and fusion partners are left off.
UniProt Q12809, whole entry N588K: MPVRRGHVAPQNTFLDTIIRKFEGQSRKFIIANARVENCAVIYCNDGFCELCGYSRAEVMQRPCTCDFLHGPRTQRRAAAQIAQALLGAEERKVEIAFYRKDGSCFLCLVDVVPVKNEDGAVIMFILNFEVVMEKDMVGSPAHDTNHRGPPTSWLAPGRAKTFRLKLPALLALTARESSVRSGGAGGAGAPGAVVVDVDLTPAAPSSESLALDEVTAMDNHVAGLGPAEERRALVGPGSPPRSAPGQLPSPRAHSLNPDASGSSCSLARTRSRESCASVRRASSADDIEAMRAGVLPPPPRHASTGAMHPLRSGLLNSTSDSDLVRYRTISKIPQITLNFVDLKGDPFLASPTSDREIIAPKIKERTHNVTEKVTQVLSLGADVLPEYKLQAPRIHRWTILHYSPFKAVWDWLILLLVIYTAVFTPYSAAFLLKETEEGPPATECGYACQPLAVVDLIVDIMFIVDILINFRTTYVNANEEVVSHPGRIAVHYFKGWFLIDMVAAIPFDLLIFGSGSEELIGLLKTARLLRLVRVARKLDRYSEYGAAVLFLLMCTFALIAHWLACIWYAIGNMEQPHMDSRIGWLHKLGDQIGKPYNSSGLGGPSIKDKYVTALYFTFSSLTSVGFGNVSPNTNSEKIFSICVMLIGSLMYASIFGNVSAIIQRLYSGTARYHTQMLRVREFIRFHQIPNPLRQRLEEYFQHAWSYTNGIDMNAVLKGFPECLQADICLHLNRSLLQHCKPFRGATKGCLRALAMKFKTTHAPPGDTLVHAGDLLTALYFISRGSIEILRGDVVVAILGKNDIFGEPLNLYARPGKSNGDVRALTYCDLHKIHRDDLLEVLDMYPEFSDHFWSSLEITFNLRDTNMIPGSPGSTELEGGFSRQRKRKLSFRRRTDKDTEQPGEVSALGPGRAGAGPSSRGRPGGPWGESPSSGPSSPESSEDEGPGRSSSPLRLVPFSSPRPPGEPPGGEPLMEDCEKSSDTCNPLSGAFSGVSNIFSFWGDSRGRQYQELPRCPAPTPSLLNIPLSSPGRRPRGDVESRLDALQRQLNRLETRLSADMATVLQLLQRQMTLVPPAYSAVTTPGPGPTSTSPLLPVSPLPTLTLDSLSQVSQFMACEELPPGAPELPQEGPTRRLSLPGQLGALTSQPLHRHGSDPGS
UniProt Q12809, whole entry N588E: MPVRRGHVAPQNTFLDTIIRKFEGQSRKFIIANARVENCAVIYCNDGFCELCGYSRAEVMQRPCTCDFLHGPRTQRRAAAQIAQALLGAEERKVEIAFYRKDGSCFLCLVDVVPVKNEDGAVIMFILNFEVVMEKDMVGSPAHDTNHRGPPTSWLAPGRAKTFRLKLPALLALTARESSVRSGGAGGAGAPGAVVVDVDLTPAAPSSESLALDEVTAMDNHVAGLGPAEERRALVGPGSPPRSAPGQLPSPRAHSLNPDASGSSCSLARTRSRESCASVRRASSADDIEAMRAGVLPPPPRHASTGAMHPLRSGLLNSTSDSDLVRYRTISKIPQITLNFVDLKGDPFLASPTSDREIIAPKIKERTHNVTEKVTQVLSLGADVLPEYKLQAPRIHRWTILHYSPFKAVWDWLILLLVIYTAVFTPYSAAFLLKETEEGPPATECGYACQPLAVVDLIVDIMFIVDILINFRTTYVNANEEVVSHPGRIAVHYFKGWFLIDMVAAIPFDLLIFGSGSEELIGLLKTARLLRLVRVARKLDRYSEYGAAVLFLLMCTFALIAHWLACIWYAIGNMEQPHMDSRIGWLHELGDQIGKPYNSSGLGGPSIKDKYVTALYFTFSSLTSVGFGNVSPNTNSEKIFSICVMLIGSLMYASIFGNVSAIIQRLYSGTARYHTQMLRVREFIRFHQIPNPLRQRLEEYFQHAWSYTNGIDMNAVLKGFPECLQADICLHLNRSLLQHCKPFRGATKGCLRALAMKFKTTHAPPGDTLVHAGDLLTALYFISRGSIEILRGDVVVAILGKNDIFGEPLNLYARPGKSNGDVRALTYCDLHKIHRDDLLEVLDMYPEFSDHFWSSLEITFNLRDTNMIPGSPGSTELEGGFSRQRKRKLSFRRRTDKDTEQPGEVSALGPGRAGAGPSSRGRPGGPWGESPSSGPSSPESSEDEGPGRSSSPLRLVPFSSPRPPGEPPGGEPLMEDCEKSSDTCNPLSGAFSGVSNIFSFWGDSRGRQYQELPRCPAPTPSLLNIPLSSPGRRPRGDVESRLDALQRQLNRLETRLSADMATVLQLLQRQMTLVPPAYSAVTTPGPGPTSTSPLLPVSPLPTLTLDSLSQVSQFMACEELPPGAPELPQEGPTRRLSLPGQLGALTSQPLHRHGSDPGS

Key:
N588K-hERG = N588K-hERG (Homo sapiens, UniProt Q12809, N588K); test: cell-based
WT-hERG = WT-hERG (Homo sapiens, UniProt Q12809); test: Whole-cell patch clamp drug block, WT-hERG in CHO cells
N588E-hERG = N588E-hERG (Homo sapiens, UniProt Q12809, N588E); test: Whole-cell patch clamp drug block, N588E-hERG in CHO cells; conditions: Affinity (IC50) for N588E, block at end of 3 s step to +20 mV, mean ± SEM
hERG inactivated state = hERG inactivated state (Homo sapiens, UniProt Q12809)

SMILES	IC50 (N588K-hERG) [µM]	IC50 (WT-hERG) [µM]	IC50 (N588E-hERG) [µM]	State preference of binding (in words) (hERG inactivated state)
C1CCC(C(CC2CCCCN2)C2CCCCC2)CC1 (stereo not shown) [Perhexiline]	4.7 ± 1.7	5.9 ± 0.9	5 ± 1.8	–
COc1cc(N)c(Cl)cc1C(=O)NC1CCN(CCCOc2ccc(F)cc2)CC1OC (stereo not shown) [Cisapride]	–	–	–	marked preference for binding to the inactive state
